Earlier results on one compound are cited in patent US5756301A, “Endogenous taxol-like substance in human serum, monoclonal antibodies directed thereto and methods of assaying therefor” (The Trustees of Columbia University in the City of New York, priority 1993, dated 1998).

For this series, the system named is microtubules / tubulin. The settings on record: cited from earlier work.

`COc1cc2c(c(OC)c1OC)-c1ccc(OC)c(=O)cc1[C@@H](NC(C)=O)CC2` [colchicine]: the “Effect on microtubule assembly / tubulin polymerization” value is “inhibit tubulin polymerization”.
